{
  "sequences": {"note": "Sequences of proteins named here, by UniProt entry; tags and fusion partners are left off. A change or cut given only in a name is not applied to a line headed by its entry.", "UniProt P11229": "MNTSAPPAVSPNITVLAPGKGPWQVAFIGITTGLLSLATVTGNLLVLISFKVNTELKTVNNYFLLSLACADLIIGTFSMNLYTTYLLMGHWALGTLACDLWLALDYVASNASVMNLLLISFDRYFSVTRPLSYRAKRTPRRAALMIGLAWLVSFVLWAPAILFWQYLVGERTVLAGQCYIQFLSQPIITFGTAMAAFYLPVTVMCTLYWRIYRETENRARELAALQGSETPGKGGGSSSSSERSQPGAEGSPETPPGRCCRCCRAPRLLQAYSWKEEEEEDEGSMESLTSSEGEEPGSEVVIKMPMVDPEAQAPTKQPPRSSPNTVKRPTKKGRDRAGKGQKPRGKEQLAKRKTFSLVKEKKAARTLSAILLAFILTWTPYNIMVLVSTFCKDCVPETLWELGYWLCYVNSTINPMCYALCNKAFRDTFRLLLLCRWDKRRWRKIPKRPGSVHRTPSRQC"},
  "source": "patent US11866449B2",
  "about": "“Crystalline polymorphs of a muscarinic acetylcholine receptor agonist” (NSC Therapeutics GmbH, priority 2016, dated 2024)",
  "origin": "cited, not measured here",
  "molecular_target": "M1 muscarinic receptor (Homo sapiens, UniProt P11229)",
  "conditions": "orthosteric muscarinic agonist; background; cited from earlier work",
  "data": [
    {"smiles": "CCCCCCOc1nsnc1C1=CCCN(C)C1", "note": "[Xanomeline]", "values": [
      {"measurement": "Muscarinic receptor subtype selectivity", "result": "modest selectivity for M1 and M4"}
    ]}
  ]
}
